Patent US20070072840A1, “POLYMORPHIC FORMS OF QUETIAPINE” (priority 2005, published 2007)

Columns and labels:
[1] = result in words, conditions not given
[2] = compared with the known hemifumarate salt

stability [1]: stable | solubility in water [2]: improved solubility in water
Substance: Quetiapine Oxalate [oxalate salt of quetiapine]
